The compounds below were run against PAFR (Homo sapiens, UniProt P25105) (assay: PAF Binding Assay (PAFR binding)).

Sequences of proteins named here, by UniProt entry; tags and fusion partners are left off. A change or cut given only in a name is not applied to a line headed by its entry.
UniProt P25105: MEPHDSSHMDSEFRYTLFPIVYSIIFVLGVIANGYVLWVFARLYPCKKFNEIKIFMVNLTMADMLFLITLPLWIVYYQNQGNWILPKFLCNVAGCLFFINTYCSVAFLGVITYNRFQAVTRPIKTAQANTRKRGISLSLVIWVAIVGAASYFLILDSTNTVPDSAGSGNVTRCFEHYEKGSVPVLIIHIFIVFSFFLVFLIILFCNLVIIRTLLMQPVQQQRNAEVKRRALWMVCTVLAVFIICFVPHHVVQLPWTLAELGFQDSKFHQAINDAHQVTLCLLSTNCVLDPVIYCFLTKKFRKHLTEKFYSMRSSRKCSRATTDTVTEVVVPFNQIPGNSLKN

Compound | IC50 [nM]
O=S(=O)(N[C@H]1CCC[C@@H](n2cnnc2)C1)c1cc(-c2cccc(OC(F)(F)F)c2)cc(C(F)(F)F)c1 [Compound 3Au, N-[(1S,3R)-3-(4H-1,2,4-triazol-4-yl)cyclohexyl]-3′-(trifluoromethoxy)-5-(trifluoromethyl)biphenyl-3-sulfonamide] | 2.1
Cc1ccc2c(F)ccc(-c3cc(C(F)(F)F)cc(S(=O)(=O)N[C@H]4CCC[C@@H](n5cnnc5)C4)c3)c2n1 [Compound 3Aap, 3-(5-fluoro-2-methylquinolin-8-yl)-N-[(1S,3R)-3-(4H-1,2,4-triazol-4-yl)cyclohexyl]-5-(trifluoromethyl)benzenesulfonamide] | 2.1
3-ethyl-N-[(1S,3R)-3-(4H-1,2,4-triazol-4-yl)cyclohexyl]trifluorethoxy)biphenyl-4-sulfonamide [Compound 2Aah] | 2.1

— patent US9029377B2, “Platelet-activating factor receptor antagonists” (Merck Sharp & Dohme Corp., priority 2009, dated 2015)
